Test results reported in patent publication EP4821924A1, “FUSED RING MAT2A INHIBITOR, AND PHARMACEUTICAL COMPOSITION CONTAINING SAME AND USE THEREOF” (dated 2026).

By UniProt entry, the sequences of proteins in these tests, tags left out.
UniProt P31153, whole entry: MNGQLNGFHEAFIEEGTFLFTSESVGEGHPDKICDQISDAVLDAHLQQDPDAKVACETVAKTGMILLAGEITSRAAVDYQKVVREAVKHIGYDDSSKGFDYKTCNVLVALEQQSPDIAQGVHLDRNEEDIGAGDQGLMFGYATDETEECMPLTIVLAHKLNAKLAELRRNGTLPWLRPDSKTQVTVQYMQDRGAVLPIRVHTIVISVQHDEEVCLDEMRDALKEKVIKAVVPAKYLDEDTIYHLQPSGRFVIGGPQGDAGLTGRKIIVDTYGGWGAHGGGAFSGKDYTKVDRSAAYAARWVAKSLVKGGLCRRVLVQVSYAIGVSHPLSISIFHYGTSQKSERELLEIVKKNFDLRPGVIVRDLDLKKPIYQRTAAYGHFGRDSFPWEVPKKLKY

Experiments:
[1] = tested on: DOHH2; assay: Proliferation inhibition of tumor cells, 10 days, DOHH2; details: DOHH2, MTAP Deletion, BCL, 3D culture, day 10
Text: (§1) Experimental Principle: The human tumor cell lines HCC15, NCI-H2052, LN18, NCI-H838, LU99, DOHH2, HT-1080, MKN45, THP-1, MCF7, MIA PaCa-2, U87-MG, and UMUC3 are all MTAP gene-deleted cell lines. NCI-H1944, ASPC-1, U251, and HT-1376 are MTAP gene wild-type cell lines. […]
(§2) Experimental Method: Each of the above cell lines in logarithmic growth phase was resuspended in growth medium and diluted to an appropriate density (approximately 6250/mL). […] The 96-well plates were equilibrated at room temperature, and 100 µL of detection reagent (Luminescent Cell Viability Detection) or 25 µL of CellTiter-Glo reagent was added to each well; after incubation at room temperature for 10 minutes, the luminescence was read on an EnVision microplate reader, and the IC50 values of the compounds were calculated using GraphPad Prism 8.0 software. […]

[2] = tested on: THP-1; assay: Proliferation inhibition of tumor cells, 10 days, THP-1; details: THP-1, MTAP Deletion, LAML, 3D culture, day 10
Text: as §1, §2

[3] = tested on: MCF7; assay: Proliferation inhibition of tumor cells, 10 days, MCF7; details: MCF7, MTAP Deletion, BRCA, 3D culture, day 10
Text: as §1, §2

[4] = tested on: MKN45; assay: Proliferation inhibition of tumor cells, 10 days, MKN45; details: MKN45, MTAP Deletion, STAD, 3D culture, day 10
Text: as §1, §2

[5] = tested on: U251; assay: Proliferation inhibition of tumor cells, 10 days, U251; details: U251, MTAP WT, GBM, 3D culture, day 10
Text: as §1, §2

[6] = tested on: NCI-H838; assay: Proliferation inhibition of tumor cells, 10 days, NCI-H838; details: NCI-H838, MTAP Deletion, LUAD, 2D culture, day 10
Text: as §1, §2

[7] = tested on: LN18; assay: Proliferation inhibition of tumor cells, 10 days, LN18; details: LN18, MTAP Deletion, GBM, 3D culture, day 10
Text: as §1, §2

[8] = tested on: HT-1080; assay: Proliferation inhibition of tumor cells, 10 days, HT-1080; details: HT-1080, MTAP Deletion, SARC, 3D culture, day 10
Text: as §1, §2

[9] = target: MAT2A (Homo sapiens, UniProt P31153); assay: MAT2A enzyme inhibition assay (phosphate detection with BIOMOL Green, OD620); details: read-out: MAT2A IC50; 150 minutes reaction, substrates L-methionine and ATP
Text: Experimental Principle: MAT2A catalyzes the reaction of L-methionine and ATP to produce S-adenosyl methionine (SAM) and phosphate. The phosphate can be detected by formation of malachite green phosphomolybdate with sulfuric acid and ammonium molybdate.
Experimental Materials: MAT2A enzyme was purchased from BPS (Cat. No. 71401-1); tris(hydroxymethyl)aminomethane (Tris) was purchased from Life Science (Cat. No. 0497); bovine serum albumin (BSA) was purchased from Sigma (Cat. No. V900933); L-methionine was purchased from Adams (Cat. No. 1100469); ATP was purchased from Sigma (Cat. No. A7699); magnesium chloride was purchased from Sigma (Cat. No. M8266); potassium chloride was purchased from Sigma (Cat. No. 7447-40-7); polyoxyethylene lauryl ether (Brij35) was purchased from Sigma (Cat. No. B4184); ethylenediaminetetraacetic acid (EDTA) was purchased from Sigma (Cat. No. M1644); dimethyl sulfoxide (DMSO) was purchased from Sigma (Cat. No. D2650); BIOMOL® Green was purchased from Enzo (Cat. No. BML-AK111-0250); 384-well plates were purchased from Corning (Cat. No. 3765); the centrifuge was purchased from Eppendorf (Model 5430); the microplate reader was purchased from BioTek (Model Synergy 2); the pipettor was purchased from Labcyte (Model Echo 550).
Experimental Method: A buffer was prepared with the following components: 50 mM Tris, pH 7.5 / 50 mM potassium chloride / 10 mM magnesium chloride / 0.01% Brij-35 / 1 mM EDTA / 0.1% BSA. The final concentration of test compounds started at 10 µM, with 3 -fold serial dilution over 10 concentrations, tested in duplicate wells. In a 384-well plate, gradient dilutions were prepared as 10 solutions at 100× final concentration. Then 250 nL was transferred using an Echo 550 to a 384-well reaction plate for subsequent use. Negative control wells and positive control wells received 250 nL of 100% DMSO each. A 1.67× final concentration MAT2A enzyme solution was prepared in buffer. […] OD620 was read and the data analyzed.

[10] = tested on: U87MG; assay: Proliferation inhibition of tumor cells, 10 days, U87MG; details: MTAP Deletion, GBM, 3D culture, day 10
Text: as §1, §2

[11] = tested on: HCT116 MTAP^WT cells; assay: Proliferation inhibition, CellTiter-Glo, HCT116 MTAP^WT cells; details: read-out: IC50 (nM) HCT116 MTAP^WT, 120 hours
Text: (§3) These two cell lines are used to determine whether compounds display MTA-synergistic inhibitory activity.
(§4) Experimental Materials: HCT116 MTAP^-/- and HCT116 MTAP^WT cells were purchased from Horizon; CellTiter-Glo reagent was purchased from Promega (Cat. No. G7571); RPMI-1640 was purchased from ATCC (Cat. No. 30-2001); fetal bovine serum (FBS) was purchased from EXCELL (Cat. No. FND500); penicillin-streptomycin was purchased from Gibco (Cat. No. 15140-122); 0.25% trypsin-ethylenediaminetetraacetic acid digestion solution (Trypsin-EDTA) was purchased from Gibco (Cat. No. 25200-072); dimethyl sulfoxide (DMSO) was purchased from Sigma (Cat. No. D2650); 96-well plates were purchased from Corning (Cat. No. 3610); the incubator was purchased from NuAire (Model NU-5700E); the inverted microscope was purchased from Nikon (Model TS-100); the automated cell counter was purchased from Life Technologies (Model Countess II); the microplate reader was purchased from PerkinElmer (Model Envision); the data analysis software was GraphPad Prism 5.0.
Experimental Method: HCT116 MTAP^-/- or HCT116 MTAP^WT cells in logarithmic growth phase were resuspended in growth medium (RPMI-1640 + 10% FBS) and diluted to the target density (5000/mL). […] The luminescence was read on an EnVision microplate reader, and the IC50 values of the compounds were calculated using GraphPad Prism 5.0 software.

[12] = tested on: HCT116 MTAP^-/- cells; assay: Proliferation inhibition, CellTiter-Glo, HCT116 MTAP^-/- cells; details: read-out: IC50 (nM) HCT116 MTAP^-/-, 120 hours
Text: as §3, §4
Experimental Method: HCT116 MTAP^-/- or HCT116 MTAP^WT cells in logarithmic growth phase were resuspended in growth medium (RPMI-1640 + 10% FBS) and diluted to the target density (5000/mL). The cell suspension was seeded into 96-well plates at 100 µL per well, and the plates were incubated overnight at 37 °C in a 5% CO2 incubator. Medium alone served as the background control group. The cells were starved with 80 µL of serum-free medium for 4 hours. The test compounds were dissolved in DMSO to prepare a 10 mmol/L stock solution. The stock solution was first diluted to 2 mmol/L (200×) with DMSO, then serially diluted 3-fold over a total of 10 concentrations. From each concentration, 3 µL of the above solution was diluted with 297 µL of growth medium (2×). Then 80 µL/well was added to the 96-well plates containing seeded cells. The cells with added test compounds were incubated at 37 °C in a 5% CO2 incubator for 120 hours. The 96-well plates were equilibrated at room temperature, and 40 µL of CellTiter-Glo reagent was added to each well, mixed on a vortex for 2 minutes, and incubated at room temperature for 60 minutes. The luminescence was read on an EnVision microplate reader, and the IC50 values of the compounds were calculated using GraphPad Prism 5.0 software.

[13] = tested on: HCC15; assay: Proliferation inhibition of tumor cells, 10 days, HCC15; details: HCC15, MTAP Deletion, NSCLC, 3D culture, day 10
Text: as §1, §2

[14] = tested on: Mia Paca2; assay: Proliferation inhibition of tumor cells, 10 days, Mia Paca2; details: Mia Paca2, MTAP Deletion, PDAC, 3D culture, day 10
Text: as §1, §2

[15] = tested on: LU99; assay: Proliferation inhibition of tumor cells, 10 days, LU99; details: LU99, MTAP Deletion, LCLC, 3D culture, day 10
Text: as §1, §2

[16] = tested on: NCI-H1944; assay: Proliferation inhibition of tumor cells, 10 days, NCI-H1944; details: NCI-H1944, MTAP WT, LUAD, 3D culture, day 10
Text: as §1, §2

[17] = tested on: NCI-H2052; assay: Proliferation inhibition of tumor cells, 10 days, NCI-H2052; details: NCI-H2052, MTAP Deletion, MESO, 3D culture, day 10
Text: as §1, §2

[18] = tested on: ASPC-1; assay: Proliferation inhibition of tumor cells, 10 days, ASPC-1; details: ASPC-1, MTAP WT, PDAC, 3D culture, day 10
Text: as §1, §2

Cc1ncccc1-c1nnc(N)c2ccc(C(F)(F)F)cc12
IC50 [1]: 0.1 to 1 µM
IC50 [2]: 0.1 to 1 µM
IC50 [3]: 0.1 to 1 µM
IC50 [4]: 0.1 to 1 µM
IC50 [5]: > 10 µM
IC50 [6]: < 0.1 µM
IC50 [7]: 0.1 to 1 µM
IC50 [8]: 0.1 to 1 µM
IC50 [9]: < 0.2 µM
IC50 [10]: 1 to 10 µM
IC50 [11]: > 10000 nM
IC50 [12]: < 100 nM
IC50 [13]: 0.1 to 1 µM
IC50 [14]: 1 to 10 µM
IC50 [15]: 0.1 to 1 µM
IC50 [16]: 1 to 10 µM
IC50 [17]: < 0.1 µM
IC50 [18]: > 10 µM

[2H]C([2H])([2H])Nc1nnc(-c2cccnc2C)c2cc(C(F)(F)F)ccc12
IC50 [12]: 100 to 1000 nM

Cc1ncccc1-c1nnc(N)c2ccc(C3CC3)c(F)c12
IC50 [12]: 100 to 1000 nM

CNc1nnc(-c2cccnc2C)c2cc(C(F)(F)F)ccc12
IC50 [9]: < 0.2 µM
IC50 [12]: 100 to 1000 nM

Cc1nccc(F)c1-c1nnc(N)c2ccc(C(F)(F)F)cc12
IC50 [12]: 100 to 1000 nM

Cc1ncccc1-c1nnc(N)c2ccc(C(F)(F)F)c(F)c12
IC50 [9]: < 0.2 µM
IC50 [12]: < 100 nM
